Experimental findings from patent publication US6596719B1 (Actelio Pharmaceuticals Ltd., priority 1999, dated 2003) are described below.

By UniProt entry, the sequences of proteins in these tests, tags left out. Residues count along the entry.
UniProt P25101, 21-427: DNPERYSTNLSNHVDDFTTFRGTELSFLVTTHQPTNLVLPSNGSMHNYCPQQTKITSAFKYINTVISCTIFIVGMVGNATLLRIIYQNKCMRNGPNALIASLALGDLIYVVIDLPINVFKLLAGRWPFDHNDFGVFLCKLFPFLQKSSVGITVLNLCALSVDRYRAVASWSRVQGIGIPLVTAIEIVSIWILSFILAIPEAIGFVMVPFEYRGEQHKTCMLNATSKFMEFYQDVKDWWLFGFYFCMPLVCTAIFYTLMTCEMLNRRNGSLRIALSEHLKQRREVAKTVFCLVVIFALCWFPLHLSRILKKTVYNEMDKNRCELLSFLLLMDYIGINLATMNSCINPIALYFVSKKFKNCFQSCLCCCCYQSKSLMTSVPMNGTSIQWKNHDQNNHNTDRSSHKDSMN

As a reminder, the IC50 is the point on the concentration scale where inhibition reaches its midpoint.

The structures appear in SMILES notation.

This experiment concerns the target T1, human recombinant ETA receptors (Homo sapiens, UniProt P25101).
T1 construct: expressed in transfected cells; host or cells: CHO cells (microsomal membranes)
The experiment is described as follows: Inhibition of endothelin binding to membranes from CHO cells carrying human ET receptors (ETA). The note with it: membranes of CHO cells expressing human recombinant ETA receptors, 8 pM [125I]ET-1, 2 h at 20° C.

Regarding `COc1ccccc1Oc1c(NS(=O)(=O)c2ccc(C)cn2)nc(N2CCOCC2)nc1OCCNS(=O)(=O)c1cccs1` [Example 58, 5-methyl-N-[6-(2-(thiophene-2-sulfonylamino)-ethoxy)-5-(o-methoxyphenoxy)-2-(N-morpholino)-4-pyrimidinyl]-2-pyridine sulfonamide], the IC50 was 724 nM.
